## Ab-95 light chain CDR variants: yeast mating affinities

Data: MIT Lincoln Laboratory AlphaSeq set, Engelhart et al. 2022, doi:10.1038/s41597-022-01779-4, as distributed in FLAb.

The target is the same throughout: PDVDLGDISGINAS, from the HR2 region of SARS-CoV-2 spike.

Ab-95 is the parent antibody, in scFv form: VH, then the linker GGGGSGGGGSGGGGS, then VL. The heavy chain is unchanged in all variants.
VH: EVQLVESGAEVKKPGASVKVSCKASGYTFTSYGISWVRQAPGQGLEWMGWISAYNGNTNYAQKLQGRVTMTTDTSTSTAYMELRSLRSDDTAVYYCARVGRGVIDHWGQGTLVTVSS
VL: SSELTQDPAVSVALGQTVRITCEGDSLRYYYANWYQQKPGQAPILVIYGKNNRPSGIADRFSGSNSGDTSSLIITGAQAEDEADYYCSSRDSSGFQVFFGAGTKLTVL

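Library AAYL52 holds single substitutions and randomly drawn double and triple substitutions in the CDRs. The assay is AlphaSeq: two haploid yeast populations carry antibody and antigen on their surface. After mating in shaken culture at 30 °C for 16 h, diploids were selected and their barcode pairs sequenced. The ratio of observed to expected reads was calibrated, replicate by replicate, on BCL2-family standards whose Kd was known from biolayer interferometry. There are three technical replicates.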

Variants are written as CDR1, CDR2 and CDR3 of the light chain (limits as in the source). Parent: EGDSLRYYYAN, GKNNRPS, SSRDSSGFQVF. Numbers give log10(Kd / nM), so 0 is 1 nM and 3 is 1 µM. Smaller is tighter. An entry "nd" has no value in the source: the pair was not observed among the diploids in that replicate. This suggests poor binding but is not conclusive. In this assay the parent's reference entry averaged 2.31; its copy inside this library read 2.25. Empty control strains, which show no peptide, gave a signal in 28% of pairings with library AAYL52; the median was 3.91 and 95% of these signals were weaker than 2.90. No background was subtracted. Also given: how often the same scFv was detected with the empty control strains, with their mean in brackets.

CDR-L1 | CDR-L2 | CDR-L3 | log10 Kd (nM) by replicate | control signals
EGDSLRYGYAN | APNNRPS | SSRDSSGFQVF | 1.78 / 2.68 / 1.66 | 1/9 (3.09)
EGDSLRYYYAN | GKNNRPS | SSTDSSGFQPH | 5.11 / nd / nd | 4/9 (4.19)
EGDSLRYYYAN | GENNRPS | WSRDSSFFQVF | 2.96 / 2.84 / nd | 5/9 (3.91)
EGDQYRYYYAN | GKNNRPS | SSRDSSGFQNF | 3.88 / nd / nd | 0/9
EGDSLRYYYAN | GKNNRPC | SSRDSSGFQDH | 3.08 / 4.16 / 3.93 | 2/9 (4.78)
NGDSLRYYYAN | RKNNRPS | YSRDSSGFQVF | 4.44 / 3.91 / 4.44 | 5/9 (4.33)
EGDSLRYYYAA | GKNNRPS | SSRPASGFQVF | 3.79 / 4.36 / 3.76 | 4/9 (3.54)
EGTSLRYYYAN | GKNNYPS | SSRDSSKFQVF | 4.10 / nd / nd | 0/9
EGDSLRYYYAN | GKNNRPS | WSQDSSGFQHF | 2.14 / 1.89 / 2.05 | 3/9 (3.81)
EGDSLRYYYAN | GYNNRPS | SSRDSSAFRVF | 3.23 / nd / nd | 2/9 (3.57)
EGDSLRYYYAG | GKNVRFS | SSRDSSGFQVF | nd / nd / nd | 1/9 (4.54)
EGDSLRYYYAL | FKNNRPS | SSRDSSGFQVF | 3.88 / nd / nd | 3/9 (3.41)
EGASLRYYYAN | GKNNSPI | SSRDSSGFQVF | 2.52 / 2.15 / 1.88 | 4/9 (3.41)
EGDSLAYYYNN | TKNNRPS | SSRDSSGFQVF | 3.36 / nd / 3.95 | 3/9 (3.76)
EGDSLRSYYAN | GNKNRPS | SSRDSSGFQVF | 2.75 / 2.56 / 2.70 | 5/9 (4.14)
EGDSLRTYYAN | GKNNRPV | SSRDSSGFQHF | 5.45 / 5.21 / nd | 5/9 (3.95)
EGDSLRYYYAN | GENNRPS | SSIDSSGFQYF | 3.72 / nd / nd | 2/9 (3.87)
EGDSLRYYWAN | GKNQRPS | SSRDSSGFLVF | 3.88 / 3.81 / 3.30 | 3/9 (3.17)
EGDSLRYYYAN | GKNNRKA | SSRDSSGFQVS | nd / 3.58 / 3.27 | 4/9 (3.91)
EVDSLQYYYAN | GKNNVPS | SSRDSSGFQVF | 2.42 / 2.09 / 2.20 | 1/9 (3.64)
EGDSLRAYYAN | GKDNYPS | SSRDSSGFQVF | nd / nd / nd | 1/9 (3.63)
EGDSLRYYYAE | GVNNRPS | SSRDSSGFLVF | 5.88 / 6.26 / nd | 4/9 (4.07)
EGDSLDYYTAN | GKNNRPS | SERDSSGFQVF | 2.25 / 2.64 / 2.02 | 5/9 (4.03)
EGDSLRYYYAN | GKNTRPS | SSQDISGFQVF | 3.70 / 4.36 / nd | 2/9 (3.86)
EGDYFRYYYAN | GKNNRPS | SLRDSSGFQVF | nd / 3.70 / nd | 4/9 (3.87)
NGDSLRYYYAN | GKNNRPS | SSADSCGFQVF | 4.80 / 3.96 / nd | 1/9 (4.29)
EGDSLRYYYGN | IKNNRPS | SRRDSSGFQVF | nd / nd / nd | 2/9 (3.95)
EWDSLRYYYAN | SKNNRPS | SSRASSGFQVF | 3.91 / nd / nd | 1/9 (3.68)
EGDSLRYYYAN | GKNQRHS | SSRDSSGFQVF | 2.74 / 2.06 / 1.67 | 2/9 (3.58)
EGDSLRYYYAN | GKNNRPS | SSRDTSGFQVM | 2.57 / 3.68 / 2.49 | 0/9
EGDSLREYYAN | GKNNRPS | SRRDSSGFQVF | 2.17 / 2.21 / 2.37 | 4/9 (3.52)
EGDSLRYYYAN | GKNNRVD | SSRDSSGFNVF | 2.03 / 1.90 / 1.33 | 0/9
EADSLRYYPAN | GKNNRPS | SSRDSCGFQVF | nd / 3.79 / 3.51 | 1/9 (4.11)
EGDSLRYYYAN | GLNNRPS | SSRDSSIFQVI | 3.70 / 3.53 / 3.09 | 1/9 (4.50)
EGDSLEYYYAN | GKNNRPS | SSHDSIGFQVF | 3.09 / 3.66 / 2.54 | 1/9 (3.87)
PGDTLRYYYAN | SKNNRPS | SSRDSSGFQVF | nd / nd / nd | 1/9 (4.26)
EGRELRYYYAN | GKYNRPS | SSRDSSGFQVF | nd / 3.93 / nd | 2/9 (4.13)
EGDSLRYYYAN | GKLNRPS | SSRDRSGFQDF | 4.09 / nd / 4.50 | 2/9 (4.12)
EGDSLRQEYAN | GKNNTPS | SSRDSSGFQVF | 2.08 / 2.15 / 1.90 | 3/9 (4.13)
EGDSLRYYYAN | FANNRPS | SSPDSSGFQVF | nd / 3.84 / 4.33 | 1/9 (3.74)
EGDSIRYYRAN | GKNNRPS | SNRDSSGFQVF | 3.36 / 2.58 / 2.76 | 4/9 (3.74)
EGWSLRYYYAN | GKNNRPR | SSRDSSGFQVF | 4.46 / 4.15 / 3.64 | 5/9 (3.90)
EGDSDRCYYAN | GKNNRPS | SIRDSSGFQVF | 3.75 / 4.62 / nd | 0/9
EGDSLRYQYAI | GKNNRPS | SSRDSSGFQVQ | 4.18 / 3.73 / nd | 5/9 (4.03)
EGDSLRYSYAN | GKNNRPS | SSRCSSGFCVF | 1.34 / 1.52 / 0.99 | 5/9 (4.32)
EGDSLRYKYAN | GKNNRPS | SSRQSSGFQGF | 4.64 / 5.49 / nd | 2/9 (3.43)
EGPSLRYYYAT | GKNNNPS | SSRDSSGFQVF | nd / nd / nd | 1/9 (2.26)
EGDSLRYYYAN | GKNNSPS | ISRDSRGFQVF | 3.69 / 3.33 / 3.76 | 2/9 (4.62)
EQDSLRYYYAN | GQNNRPS | SSRDSEGFQVF | 4.13 / 4.23 / 4.52 | 3/9 (4.00)